{
  "source": "patent US20050238634A1",
  "details": "oral 3H-paclitaxel 9 mg/kg; cyclosporin dose 2 × 5 mg/kg oral",
  "data": [
    {"smiles": "C/C=C/C[C@@H](C)C[C@H]1C(=O)N[C@@H](CC)C(=O)N(C)CC(=O)N(C)[C@@H](CC(C)C)C(=O)N[C@@H](C(C)C)C(=O)N(C)[C@@H](CC(C)C)C(=O)N[C@@H](C)C(=O)N[C@H](C)C(=O)N(C)[C@@H](CC(C)C)C(=O)N(C)[C@@H](CC(C)C)C(=O)N(C)[C@@H](C(C)C)C(=O)N1C", "note": "[Cyclosporin F, cyclosporin F]", "values": [
      {"measurement": "% Absorption", "value": 27.2, "unit": "%"}
    ]}
  ]
}
